{
  "source": "paper PMC6646794",
  "about": "(Biochimica et Biophysica Acta. Molecular Cell Research, 2019)",
  "key": {"[1]": {"system": "TRPM2", "conditions": "ref [23]; cited from earlier work", "description": "TRPM2 is regulated by a multitude of factors including intracellular nucleotides, calcium [[14], [15], [16]], temperature, phosphorylation and pH [19]. […] 2′-deoxy-ADPR is an endogenous nucleotide that can be synthesized from n ... || Besides its modulation by nucleotides and Ca^2+, TRPM2 is also affected by temperature making it one of so far nine thermosensitive TRP channels (thermoTRPs)."}, "[2]": {"system": "NudT9H domain", "test": "Thermal unfolding of NudT9H by nDSF", "format": "binding, human", "conditions": "NudT9H 0.2 mg/ml with 1.0 mg/ml Ca2+-CaM, 1 °C/min, 25 mM Tris pH 7.4, 150 mM NaCl, 2 mM CaCl2, 10% glycerol"}, "[3]": {"system": "NudT9H domain", "test": "ITC measurement of CaM binding to intact NudT9H", "design": "species or system human"}},
  "data": [
    {"substance": "calmodulin [Ca^2+-CaM]", "values": [
      {"measurement": "binding to TRPM2", "setting": "[1]", "result": "binds to an IQ-like motif in the N-terminus of TRPM2"},
      {"measurement": "change of nDSF profile of NudT9H", "setting": "[2]", "result": "decrease in the fluorescence emission at 350 nm (F350) and an increase in F330"},
      {"measurement": "temperature of Ca2+-CaM binding to NudT9H (upon partial unfolding)", "setting": "[3]; binding occurs upon partial unfolding of NudT9H", "result": "> 35", "unit": "°C"},
      {"measurement": "binding to NudT9H", "setting": "[3]; room temperature, ITC, 600 μM CaM into 24 μM NudT9H, 25 mM Tris pH 7.4, 150 mM NaCl", "result": "could not detect binding at room temperature"}
    ]}
  ]
}
